Among the data in ChEMBL document CHEMBL1122375, “Synthesis and biological evaluation of 2-fluoro-8-azaadenosine and related compounds” (J Med Chem, 1983) are Km values, retold here.

Substrate in series [1]: Nc1nc(N)c2nnn([C@@H]3O[C@H](CO)[C@@H](O)[C@H]3O)c2n1
Put plainly: (§1) Kinetic parameter in calf intestine adenosine deaminase.

Substrate in series [2]: Nc1ncnc2c1ncn2[C@@H]1O[C@H](CO)[C@@H](O)[C@@H]1O
The description is as §1.

Substrate in series [3]: Nc1ncnc2c1ncn2[C@@H]1O[C@H](CO)[C@@H](O)[C@H]1O
Described as §1.

Substrate in series [4]: Nc1ncnc2c1nnn2[C@@H]1O[C@H](CO)[C@@H](O)[C@@H]1O
The description is as §1.

B1: Adenosine deaminase (Bos taurus), P56658 (protein)
chain: MAQTPAFNKPKVELHVHLDGAIKPETILYYGRKRGIALPADTPEELQNIIGMDKPLSLPEFLAKFDYYMPAIAGCREAVKRIAYEFVEMKAKDGVVYVEVRYSPHLLANSKVEPIPWNQAEGDLTPDEVVSLVNQGLQEGERDFGVKVRSILCCMRHQPSWSSEVVELCKKYREQTVVAIDLAGDETIEGSSLFPGHVKAYAEAVKSGVHRTVHAGEVGSANVVKEAVDTLKTERLGHGYHTLEDATLYNRLRQENMHFEVCPWSSYLTGAWKPDTEHPVVRFKNDQVNYSLNTDDPLIFKSTLDTDYQMTKNEMGFTEEEFKRLNINAAKSSFLPEDEKKELLDLLYKAYGMPSPASAEQCL
In the case of B1, the Km in series [1] stood at 12 µM; in series [2], 120 µM; in series [3] it was 29 µM; in series [4] it was 430 µM.
